Experiments:
[1] = Protein unfolding studies on PEG-Alb; assay type: physicochemical
[2] = Degree of hydration of PEG-albumin colloid; assay type: physicochemical; conditions: relative to albumin
[3] = Hydrodynamic radius of PEG-albumin colloid; assay type: physicochemical
[4] = modification of the single free thiol (cys 34); cited from earlier work
[5] = septic patients, following administration of 200 ml 20% albumin; cited from earlier work

Row | Substance | albumin functionality in protein unfolding studies [1] | degree of hydration [2] | hydrodynamic radius [3] | decrease in antioxidant activity [4] | increase in thiol concentration [5]
1 | PEG-Alb: albumin-based colloid composition, a polyethylene glycol (PEG) modified albumin | albumin functionality is highly preserved | 13-16 times compared to albumin | 10 nm | – | –
2 | albumin: unmodified albumin, comparator and major extracellular antioxidant in plasma | – | – | 3.4 nm | 45% | up to 50%
